The source of these data is ChEMBL document CHEMBL5113496, “A systematic exploration of boceprevir-based main protease inhibitors as SARS-CoV-2 antivirals” (Eur J Med Chem, 2022).

Each structure is given as a SMILES string.

The target of this assay is Replicase polyprotein 1ab (Severe acute respiratory syndrome coronavirus 2, UniProt P0DTD1). Put plainly: Inhibition of eGFP fused SARS-CoV2 main protease transfected in HEK293T/17 cells incubated for 72 hrs by fluorescence based flow cytometry analysis. It is filed as cell-based. On the technique in general: A flow cytometer gives signals particle by particle.
By EC50 is commonly meant the concentration giving half of the maximal effect. Read a low EC50 as an effect from little substance. In turn, `CC(C)(C)NC(=O)N[C@H](C(=O)N1C[C@H]2[C@@H]([C@H]1C(=O)N[C@@H](C[C@@H]1CCNC1=O)C(=O)C(=O)NC1CC1)C2(C)C)C(C)(C)C` had an EC50 greater than 10 µM.

With `CC(C)(C)NC(=O)N[C@H](C(=O)N1CC2(CC2)C[C@H]1C(=O)N[C@H](C=O)C[C@@H]1CCNC1=O)C(C)(C)C`, the EC50 is greater than 10 µM.

`CCNC(=O)C(=O)[C@H](C[C@@H]1CCNC1=O)NC(=O)[C@@H]1[C@@H]2[C@H](CN1C(=O)[C@@H](NC(=O)NC(C)(C)C)C(C)(C)C)C2(C)C` showed an EC50 greater than 10 µM.

In turn, `CC(C)(C)C[C@H](NC(=O)[C@@H](NC(=O)NC(C)(C)C)C(C)(C)C)C(=O)N[C@H](C=O)C[C@@H]1CCNC1=O` registered an EC50 greater than 5 µM.

In the case of `CC(C)(C)NC(=O)NC(C(=O)N1C[C@H]2[C@@H]([C@H]1C(=O)N[C@@H](C[C@@H]1CCNC1=O)C(=O)C(=O)NCc1ccccc1)C2(C)C)C(C)(C)C` (single isomer, unassigned), the EC50 is greater than 10 µM.
